In patent US4389408A, “Novel ampicillin esters and production thereof” (priority 1980, dated 1983):

How the values were obtained:
[1] = assay type: in vitro ADME
Description: Each of the test compounds was dissolved to a predetermined concentration in an acidic aqueous medium (simulated gastric juice) having a pH of 1.2 prepared by adding 2.0 g of sodium chloride, 24 ml of 10% hydrochloric acid and 3.2 g of pepsin to 1000 ml of water. While the solution was shaken at 37° C., it was periodically sampled. The sampled solution was subjected to high-speed liquid chromatography using a reversed phase partition column, and the hydrolysis ratio of the compound was determined from a decrease in the peak height of the compound in the chromatogram.

[2] = assay type: in vitro ADME; remark: listed apart in the source
Description: The procedure of (a) was repeated except that a basic aqueous medium (simulated intestinal juice) having a pH of 7.50 prepared by adding 35.8 g of disodium phosphate, 6.0 ml of 10% hydrochloric acid and 2.8 g of pancreatin to 1000 ml of water was used instead of the acidic aqueous medium.

in vivo = settings: mouse, mice, aqueous solution

## Cc1oc(=O)oc1COC(=O)[C@@H]1N2C(=O)[C@@H](NC(=O)[C@H](N)c3ccccc3)[C@H]2SC1(C)C [A, Ampicillin (5-methyl-2-oxo-1,3-dioxolen-4-yl)methyl ester hydrochloride]
[1]
  Rate of hydrolysis relative to that of Ampicillin phthalidyl ester: about one half
[2]
  Rate of hydrolysis relative to that of Ampicillin phthalidyl ester: about one half
In vivo; intravenous
  LD50: 557 mg/kg
In vivo; ip, intraperitoneal
  LD50: 1430 mg/kg
In vivo; oral
  LD50: > 5000 mg/kg

Where a name gives a salt, the structure may show the parent alone. Read-outs that look alike come from different tables or passages of the source.
